Reference: patent US8053409B2, “Agent for prophylaxis of reflex sympathetic dystrophy after cerebral apoplexy” (Asahi Kasei Pharma Corporation, priority 2006, dated 2011)

How the values were obtained:
[1] = system: patients with hemiplegia attributed to cerebrovascular disease (stroke); parameters: species or system human; details: in vivo
Text: Test subjects were 33 patients with hemiplegia attributed to cerebrovascular disease (stroke) at Brunnstrom stage III or lower in either the upper limb or a finger on admission. Patients already developing RSD (shoulder-hand syndrome) on admission and patients with pain in the shoulder joint or swollen paralyzed limbs were excluded from the test. To 12 of these 33 test subjects, 20 units of elcatonin (Elcitonin Injection 20S; Asahi-Kasei Pharma; hereinafter, referred to as EL) were intramuscularly administered once a week immediately after admission (EL administration group). On the other hand, 21 test subjects were classified into a rehabilitation alone group (control group) and compared with the EL administration group. Physical therapy and therapeutic exercise, occupational therapy, and the management of the paralyzed limbs were performed thoroughly in all the cases. […] EL administration was initiated 11 to 59 days after an attack of stroke (25.8 days on average) and continued until 5 months after the attack of stroke. The same observation period was applied to the control group. […]
Activities of daily living (ADL) were evaluated on the basis of the Barthel Index (BI) and the range of motion (ROM) of shoulder joint. […]

[2] = in vivo

1-butyric acid-7-(L-2-aminobutyric acid)-26-L-aspartic acid-27-L-valine-29-L-alanine-calcitonin [elcatonin]
Side effects during the test period [1]: no significant or serious side effect was observed | Intramuscular dose relative to drip infusion in vein for equal maximum serum concentration [2]: approximately 1.5 times
